Measurements: US12667624B2, “GIP derivative, long-acting conjugate thereof, and pharmaceutical composition comprising same” (HANMI PHARM. CO., LTD., priority 2020, dated 2026)

Tested on: MRL/Ipr mice
Experiment: Vasculitis disease model MRL/Ipr mice: gene expression in renal arteries
Type: in vivo, mouse
Settings: abatacept 5.7 mg/kg, conjugate 0.12, 1.05 or 3.16 mg/kg at 2-day intervals, 10th week
Text: To confirm efficacy of the long-acting GIP conjugate on vasculitis in a disease model, MRL/Ipr mice were used. In the case of the mice, it is known that vasculitis is observed in the large vessels including the aorta and major branches caused by systemic inflammation (Arthritis Rheum. 2003 May; 48(5):1445-51). Therefore, the mice of this type were selected as a vasculitis disease model.
There are a normal mouse control group administered with an excipient, a disease mouse control group administered with an excipient, a control group administered with commercially available abatacept (Orencia, Inc.,) at a concentration of 5.7 mg/kg, and test groups each administered with the long-acting GIP conjugate at a concentration of 0.12 mg/kg, 1.05 mg/kg, or 3.16 mg/kg. The administration of the excipient and the drugs was performed at 2-day intervals, and the experiment was terminated at the 10th week. For use as the long-acting GIP conjugate, the long-acting GIP conjugate (SEQ ID NO: 17) prepared in Example 3 was used.

## abatacept
FIG. 4A
  expression of inflammation-related genes MCP-1, IL-1β, IL-6, TNF-α in renal arteries compared to disease model control: significantly reduced
FIG. 4B
  expression of vascular remodeling genes MMP-2 and MMP-9 in renal arteries compared to control groups: unlike the case of abatacept
